Results on one compound are retold here after patent publication US20220348590A1, “CYCLOOXYGENASE-2 INHIBITORS AND USES THEREOF” (The Board Institute, Inc., priority 2019, published 2022).

The chains behind the UniProt entries cited, without tags or fusion partners.
UniProt P35354, whole entry: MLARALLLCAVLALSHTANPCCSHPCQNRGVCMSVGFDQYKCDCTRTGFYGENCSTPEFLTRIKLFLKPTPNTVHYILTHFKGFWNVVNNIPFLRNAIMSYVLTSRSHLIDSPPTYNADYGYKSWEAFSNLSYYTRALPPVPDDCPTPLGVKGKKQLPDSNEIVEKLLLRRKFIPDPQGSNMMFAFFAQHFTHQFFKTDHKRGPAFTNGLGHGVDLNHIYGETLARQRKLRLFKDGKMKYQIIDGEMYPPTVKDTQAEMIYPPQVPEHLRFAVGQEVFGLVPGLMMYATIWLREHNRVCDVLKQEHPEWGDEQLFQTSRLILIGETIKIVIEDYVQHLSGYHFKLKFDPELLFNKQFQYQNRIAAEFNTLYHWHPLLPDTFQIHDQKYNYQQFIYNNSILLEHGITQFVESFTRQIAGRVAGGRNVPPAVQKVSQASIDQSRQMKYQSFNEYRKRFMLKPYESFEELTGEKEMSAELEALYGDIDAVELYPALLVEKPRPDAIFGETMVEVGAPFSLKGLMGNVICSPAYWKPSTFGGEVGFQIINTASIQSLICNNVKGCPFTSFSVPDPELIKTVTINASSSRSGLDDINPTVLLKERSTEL

The target of this assay is human recombinant COX2 (hCOX2) (UniProt P35354). Put plainly: LCMS-based COX2 enzymatic inhibition assay (PGE2 quantification). The class given is biochemical. How it is done:
We have adapted a previously reported cyclooxygenase enzymatic assay utilizing LCMS quantification of PGE2 as the product of COX-1 and COX2 catalyzed conversion of arachidonic acid to evaluate the binding properties of newly synthesized ligands [Cao, 2011]. These optimized and miniaturized (384-well plates) LCMS-based COX-1 and COX2 enzymatic assays enabled us to quickly evaluate newly synthesized ligands for COX2 binding affinity and selectivity vs COX-1. Using a shorter ligand-enzyme incubation time in the LCMS assay (2 minutes vs 10 minutes) also permitted us to prioritize ligands with faster binding kinetics. Considering the relatively slow on-rate kinetics of known coxibs, due to their 3-step binding mechanism [Marnett, 2009], we believe that optimizing this critical parameter will be key to the successful development of a COX2 PET tracer. Using these enzymatic assays, we have evaluated>200 newly synthesized ligands against COX2 and >20 ligands against COX-1. Another critical property necessary for a good PET radiotracer is to have low non-specific binding (NSB) to increase the free fraction and maximize the signal to noise ratio. This property can be evaluated using in-vitro protein binding assays, and we have now evaluated>50 newly synthesized ligands in mouse, rat and human plasma protein binding (PPB) assays as well as >15 ligands in a mouse brain protein binding (BPB) assay.
Ovine COX-1 (oCOX-1), ovine COX2 (oCOX2), human recombinant COX2 (hCOX2), arachidonic acid, PGE2, d4-PGD2, and […] (labeled with deuterium atoms at positions 3 and 4) were purchased from Cayman Chemicals (Ann Arbor, Mich.). […]
The concentration of PGE2 in each sample was measured using LC-MS-MS, and the percent of COX inhibition by each test solution was determined by comparing the amount of PGE2 produced in the experiment with that produced in the negative control incubation. The formation of PGD2 was measured for quality control purposes, since the levels of PGD2 should be proportional to those of PGE2. […]

Structures are written as SMILES.

With `CS(=O)(=O)c1ccc(-c2cc3c(ccn3Cc3cccs3)cn2)cc1`, the “COX2 2 minutes pge2/pge2d4 area ratio Avg. IC50” value (readout pge2/pge2d4 area ratio, average) worked out at 5.2 µM. Moreover, the “COX2 2 minutes pge2/pge2d4 area ratio Avg. LLE” value (readout pge2/pge2d4 area ratio, average LLE) is listed as 0.784. Also, the “COX2 2 minutes pge2 area (counts) Avg. LLE” value (readout pge2 area (counts), average LLE) came to 0.784.
